Molecular target: dopamine transporter (UniProt P23977)
Format: binding
Parameters: other: relative to cocaine
Settings: relative to cocaine

In the case of `COC(=O)C1C(OC(=O)c2ccccc2)CC2CCC1N2C` (stereo not shown) [6 allococaine, allococaine, reference compound], the “times less potent than cocaine at the DAT” value was 60 times.

Reference: patent US6358492B1, “Dopamine transporter imaging ligand” (Research Triangle Institute, priority 1997, dated 2002)
